Measurements reported in patent publication US8889696B2, “Substituted pyrido[2,3-d]pyrimidin-7(8H)-ones and therapeutic uses thereof” (Temple University—Of The Commonwealth System Of Higher …, priority 2009, dated 2014).

Chains of the proteins cited; added tags and fusions are not shown. Lines headed by an entry give the natural chain unless they say otherwise; changes in a name come on top. Residues count along the entry.
UniProt P53350, whole entry: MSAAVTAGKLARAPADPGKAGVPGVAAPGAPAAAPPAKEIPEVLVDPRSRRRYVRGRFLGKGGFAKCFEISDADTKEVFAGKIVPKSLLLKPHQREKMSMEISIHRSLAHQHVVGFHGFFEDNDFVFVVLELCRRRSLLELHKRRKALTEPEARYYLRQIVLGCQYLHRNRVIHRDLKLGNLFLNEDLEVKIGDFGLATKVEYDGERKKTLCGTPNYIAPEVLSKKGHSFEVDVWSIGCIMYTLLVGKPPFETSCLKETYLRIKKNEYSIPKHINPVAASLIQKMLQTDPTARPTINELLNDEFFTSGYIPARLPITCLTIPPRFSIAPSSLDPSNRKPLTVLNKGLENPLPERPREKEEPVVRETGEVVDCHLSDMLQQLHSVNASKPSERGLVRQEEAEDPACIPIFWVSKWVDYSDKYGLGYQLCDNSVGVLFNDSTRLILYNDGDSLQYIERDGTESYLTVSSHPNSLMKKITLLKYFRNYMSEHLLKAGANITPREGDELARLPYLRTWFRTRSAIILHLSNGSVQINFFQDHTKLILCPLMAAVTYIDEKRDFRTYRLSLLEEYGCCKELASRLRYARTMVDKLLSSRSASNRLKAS
UniProt Q05513: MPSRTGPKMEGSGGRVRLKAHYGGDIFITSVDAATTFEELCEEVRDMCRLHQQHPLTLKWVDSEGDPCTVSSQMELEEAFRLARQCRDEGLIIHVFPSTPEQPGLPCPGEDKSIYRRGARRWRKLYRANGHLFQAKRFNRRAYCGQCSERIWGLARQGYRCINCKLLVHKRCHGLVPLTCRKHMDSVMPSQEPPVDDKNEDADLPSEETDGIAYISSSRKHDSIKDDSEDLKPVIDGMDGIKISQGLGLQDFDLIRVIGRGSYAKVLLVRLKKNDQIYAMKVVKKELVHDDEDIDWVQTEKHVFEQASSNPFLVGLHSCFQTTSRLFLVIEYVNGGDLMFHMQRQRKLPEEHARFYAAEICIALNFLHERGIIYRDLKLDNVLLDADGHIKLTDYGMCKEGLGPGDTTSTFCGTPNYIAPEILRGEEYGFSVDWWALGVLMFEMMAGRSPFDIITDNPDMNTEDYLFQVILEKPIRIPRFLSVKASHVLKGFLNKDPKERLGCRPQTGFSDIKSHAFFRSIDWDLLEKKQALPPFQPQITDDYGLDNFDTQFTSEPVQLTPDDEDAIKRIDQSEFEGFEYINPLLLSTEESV
UniProt P10721, 26-976 V560G: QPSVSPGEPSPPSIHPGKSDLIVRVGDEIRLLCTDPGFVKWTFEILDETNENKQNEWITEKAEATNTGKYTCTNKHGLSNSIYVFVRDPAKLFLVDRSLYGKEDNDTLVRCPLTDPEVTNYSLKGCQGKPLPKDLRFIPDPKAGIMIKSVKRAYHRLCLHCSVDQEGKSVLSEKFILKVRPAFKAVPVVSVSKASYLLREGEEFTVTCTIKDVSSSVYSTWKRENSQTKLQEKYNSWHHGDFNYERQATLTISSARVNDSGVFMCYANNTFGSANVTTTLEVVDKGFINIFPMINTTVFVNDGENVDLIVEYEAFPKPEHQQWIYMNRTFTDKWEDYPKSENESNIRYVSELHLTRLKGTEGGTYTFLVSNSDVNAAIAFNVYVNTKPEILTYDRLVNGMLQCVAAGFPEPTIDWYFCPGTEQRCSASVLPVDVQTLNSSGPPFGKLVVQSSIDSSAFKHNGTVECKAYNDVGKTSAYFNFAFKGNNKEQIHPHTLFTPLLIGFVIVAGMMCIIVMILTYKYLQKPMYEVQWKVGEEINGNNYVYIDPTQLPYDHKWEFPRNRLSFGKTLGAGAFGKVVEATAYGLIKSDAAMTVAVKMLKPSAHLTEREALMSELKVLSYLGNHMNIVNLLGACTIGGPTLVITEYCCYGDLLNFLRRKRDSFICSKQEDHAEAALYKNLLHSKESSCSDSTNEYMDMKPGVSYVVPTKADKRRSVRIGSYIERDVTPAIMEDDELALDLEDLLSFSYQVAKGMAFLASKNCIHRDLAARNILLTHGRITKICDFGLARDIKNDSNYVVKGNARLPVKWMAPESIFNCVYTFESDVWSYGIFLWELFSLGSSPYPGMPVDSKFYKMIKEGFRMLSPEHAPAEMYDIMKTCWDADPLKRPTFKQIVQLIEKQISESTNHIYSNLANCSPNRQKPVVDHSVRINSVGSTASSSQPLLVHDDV

Columns and labels:
PLK1 = PLK1 (Homo sapiens (Human), UniProt P53350); experiment: Kinase profiling; assay type: biochemical
PKCzeta = PKCzeta (Homo sapiens (Human), UniProt Q05513); experiment: Kinase profiling; assay type: biochemical
U2OS osteosarcoma cells = experiment: Induction of apoptosis in U2OS cells (Caspase Glo, Cell Titer Blue); assay type: cell-based; conditions: 24 hours, FIG. 3
Experimental: U2OS cells were treated with increasing concentrations of the compound for 24 hours. Cell viability was measured by incubating cells with Cell Titer Blue reagent at 37° C. for 3 hours under 5% CO2. Thereafter the cells were incubated with Caspase Glo reagent for 1 hour at room temperature to assay induction of Caspase 3/7 activity.
Cell viability was measured by incubating cells with Cell Titer Blue reagent (Promega) at 37° C. for 3 hours under 5% CO2. Thereafter the cells were incubated with Caspase Glo reagent (Promega) for 1 hour at room temperature to assay induction of Caspase 3/7 activity.

c-Kit (V560G) = c-Kit (V560G) (Homo sapiens (Human), UniProt P10721, V560G); experiment: biochemical

Cn1c(=O)c(S(=O)(=O)c2ccc(F)cc2F)cc2cnc(Nc3ccc4[nH]ccc4c3)nc21 [Example 39, 2-(1H-indol-5-ylamino)-6-(2,4-difluorophenylsulfonyl)-8-methylpyrido[2,3-d]pyrimidin-7(8H)-one] was tested, and the IC50 (PLK1) was 7.82 µM, the IC50 (PKCzeta) was greater than 10 µM and the “induction of caspase 3/7 activity” value (U2OS osteosarcoma cells) was “induction of caspase 3/7 activity in a dose dependant manner”. The IC50 (c-Kit (V560G)) was 6.15 µM.
